The text below walks through data of article PMC4686915, “An engineered scorpion toxin analogue with improved Kv1.3 selectivity displays reduced conformational flexibility” (Scientific Reports, 2015).

The chains behind the UniProt entries cited, without tags or fusion partners.
UniProt P22001, whole entry: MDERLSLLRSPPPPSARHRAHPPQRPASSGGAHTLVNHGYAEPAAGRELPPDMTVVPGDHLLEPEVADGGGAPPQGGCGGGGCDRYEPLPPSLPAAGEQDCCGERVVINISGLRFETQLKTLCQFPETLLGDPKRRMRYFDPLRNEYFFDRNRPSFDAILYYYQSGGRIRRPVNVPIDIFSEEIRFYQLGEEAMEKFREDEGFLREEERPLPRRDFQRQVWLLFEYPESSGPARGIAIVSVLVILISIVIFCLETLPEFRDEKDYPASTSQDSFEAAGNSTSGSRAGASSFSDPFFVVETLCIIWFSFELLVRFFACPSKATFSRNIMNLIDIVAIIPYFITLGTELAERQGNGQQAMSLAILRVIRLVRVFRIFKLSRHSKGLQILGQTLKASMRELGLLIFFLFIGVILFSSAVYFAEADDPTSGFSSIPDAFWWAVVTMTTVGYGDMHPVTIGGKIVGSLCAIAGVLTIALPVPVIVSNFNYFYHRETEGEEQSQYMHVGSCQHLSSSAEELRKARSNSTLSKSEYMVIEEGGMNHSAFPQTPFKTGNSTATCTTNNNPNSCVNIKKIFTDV
UniProt P16389, whole entry: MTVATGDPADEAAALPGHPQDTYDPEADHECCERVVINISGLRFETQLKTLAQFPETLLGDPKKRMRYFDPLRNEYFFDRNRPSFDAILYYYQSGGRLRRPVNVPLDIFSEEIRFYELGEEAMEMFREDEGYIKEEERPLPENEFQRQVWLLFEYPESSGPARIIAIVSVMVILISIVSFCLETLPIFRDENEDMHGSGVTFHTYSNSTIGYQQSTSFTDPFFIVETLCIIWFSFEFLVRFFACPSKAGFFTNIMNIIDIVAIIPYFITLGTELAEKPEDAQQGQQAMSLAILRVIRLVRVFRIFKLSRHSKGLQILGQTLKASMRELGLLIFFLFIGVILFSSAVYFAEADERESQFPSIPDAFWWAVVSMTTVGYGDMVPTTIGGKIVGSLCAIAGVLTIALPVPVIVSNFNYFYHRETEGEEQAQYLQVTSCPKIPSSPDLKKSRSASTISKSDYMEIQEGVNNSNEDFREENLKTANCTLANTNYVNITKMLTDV

“Also recorded” adds a separate entry of the source.

Holding throughout (assay type): cell-based
For one test, the target named is T1, hKv1.3 (Homo sapiens, UniProt P22001).
T1 construct: endogenous in cells
Description: Patch-clamp block of Kv1.3 currents in activated human lymphocytes. The note with it: for Hill coefficient H, Kv1.3: Hill fit of dose-response on Kv1.3; for affinity and selectivity for Kv1.3, in words: patch-clamp, vs Kv1.2 and other channels. For orientation: Patch clamp records ionic current or voltage across a cell membrane.

The target in a further test is T2, hKv1.2 (Homo sapiens, UniProt P16389).
T2 construct: expressed in transfected cells; host or cells: CHO cells, transient transfection (Lipofectamine 2000), GFP plasmid co-transfected 10:1
Description: Patch-clamp block of Kv1.2 currents in transfected CHO cells. The settings on record: for block of Kv1.2 current, in words: 100 nM toxin; for Hill coefficient H, Kv1.2: Hill fit of dose-response on Kv1.2.

For test [1], the target named is T3, Kv1.3 (Homo sapiens, UniProt P22001). Description: Wash-out kinetics of Kv1.3 current block. More on the design: endogenous in cells. The settings on record: for TOFF, wash-out time constant: Kv1.3, human lymphocytes, +50 mV pulses from −100 mV every 15 s, single exponential fit, mean ±SEM, n = 3 sAnTx, 4 N17A, 6 [F32T]-AnTx, 6 [N17A/F32T]-AnTx, 1 nM sAnTx, 3 nM variants; for dissociation from Kv1.3, in words: wash-out time constants.

The subject of another test is mKv1.1. Description: Patch-clamp block of mKv1.1 currents in L929 cells. The settings on record: 100 nM toxin, whole-cell, +50 mV. Here is the method:
(§1) mKv1.1 currents were measured on L929 cells stably expressing the channel. Cells were cultured as described earlier. CHO cells were transiently transfected with pcDNA3 vector containing the hKv1.2 gene or with pEGFP-C1 vector coding the KCa3.1 gene[10] using Lipofectamine 2000 (Invitrogen) reagent according to the manufacturer’s protocol. In case of Kv1.2 the pcDNA3 vector was co-transfected with the plasmid coding GFP in a ratio of 10:1 (channel plasmid:GFP). GFP-positive transfectants were identified with a Nikon TE2000U fluorescence microscope (Nikon, Tokyo, Japan) and were used for current recordings.
(§2) Solutions for whole-cell and outside-out patch-clamp measurements contained in mM: (bath: 145 NaCl, 5 KCl, 1 MgCl2, 2.5 CaCl2, 5.5 glucose, 10 HEPES, 0.1 mg/ml BSA, pH 7.35) and (pipette-filling solution for Kv channels: 140 KF, 2 MgCl2, 1 CaCl2, 10 HEPES, 11 EGTA, pH 7.22; for KCa3.1 channels: 150 K-aspartate, 5 HEPES, 10 EGTA, 8.7 CaCl2, 2 MgCl2, pH 7.22). Pipettes had 3-5-MΩ resistance in the bath. Series resistance compensation up to 85% was used.
(§3) The remaining current fraction at a given toxin concentration is RF=I/I0, where I and I0 are current amplitudes in the presence and absence of the toxin, respectively. […]
(§4) A. Kv1.1 currents were measured in an L929 cell stably expressing the mKv1.1 channel. […]
(§5) currents were measured in a CHO cell transiently transfected with the KCa3.1 gene. […]

Another test deals with hKCa3.1. In words: Patch-clamp block of KCa3.1 currents in transfected CHO cells. The settings on record: 100 nM toxin, whole-cell, voltage ramps -100 to +50 mV. Here is the method:
as §1, §2, §3, §4, §5

Test [2] has as its target T3, Kv1.3. In words: Association rate (wash-in kinetics) to Kv1.3. Details: endogenous in cells; host or cells: human lymphocytes (inferred). From the text: Supplementary Figure S5. Association rates of sAnTx and [N17A/F32T]-AnTx to Kv1.3 […]
Normalized current amplitudes are plotted as a function of time during the development of block […]
and recovery from block by the toxins. Depolarizing pulses were applied every 15 s. Data points […]
were fit with single exponential functions and TON (wash-in) and TOFF (wash-out) time constants […]
were used to calculate kON values. […]
kON values characterizing the association rate were obtained from toxin wash-in kinetics at lower […]
concentrations (at high concentrations block developed too quickly to be reliably fit) and wash-out […]
kinetics (following high concentration block) on a cell-by-cell basis to exclude perfusion system […]
positioning effects. kON was calculated as: […]
k = 1 − TON × kOFF , k = 1
(also on this page, place not known: De polarizing T T OFF cell -by-cell kON kOFF ON Wash-in Time (s) 0 50 100 Relative amplitude 0.0 0.5 1.0 sAnTx (1 nM) N17/F32T (1 nM) Wash-out Time (s) 0 50 100 150) […]
(1 picture or pasted object on this page, not shown here)

Turning to `CSCC[C@@H]1NC(=O)[C@@H]2CSSC[C@H](NC(=O)[C@H](CCC(=O)O)NC(=O)[C@H](CCCCN)NC(=O)[C@@H]3CCC(=O)N3)C(=O)N[C@@H]([C@@H](C)O)C(=O)NCC(=O)N3CCC[C@H]3C(=O)N[C@@H](CCC(N)=O)C(=O)N[C@@H](Cc3c[nH]cn3)C(=O)N[C@H]3CSSC[C@H](NC(=O)[C@H](CCCCN)NC(=O)[C@H](CCCNC(=N)N)NC(=O)[C@H](CC(N)=O)NC1=O)C(=O)N[C@@H](CCCCN)C(=O)N[C@H]1CSSC[C@H](NC(=O)[C@H](Cc4ccccc4)NC(=O)[C@H](CC(N)=O)NC(=O)[C@H]([C@@H](C)O)NC3=O)C(=O)N[C@@H](CCCNC(=N)N)C(=O)N[C@@H](CCCCN)C(=O)N[C@@H](CC(N)=O)C(=O)N[C@@H](CCCCN)C(=O)N[C@@H](CSSC[C@@H](C(=O)N[C@@H](CCCCN)C(=O)O)NC(=O)[C@H](CC(N)=O)NC(=O)[C@H]([C@@H](C)O)NC1=O)C(=O)N[C@@H]([C@@H](C)O)C(=O)N[C@@H](Cc1c[nH]cn1)C(=O)NCC(=O)N[C@@H](CCCCN)C(=O)N2` [[F32T]-AnTx], at hKv1.3, the “Hill coefficient H, Kv1.3” value was 1; the “affinity and selectivity for Kv1.3, in words” value (from here on “affinity and selectivity”) is on record as “markedly improved toxin selectivity for Kv1.3, but with reduced affinity”. Further, the “affinity and selectivity” value on hKv1.3 (listed as F32T) is listed as “its affinity for Kv1.3 also decreased slightly”. The “reduction of affinity for Kv1.3 compared to sAnTx” value at hKv1.3 (ratio of Kd values vs sAnTx) is recorded as “about 30 fold”. In addition, the “block of Kv1.2 current, in words” value at hKv1.2 was “very small amount of block was detected”. In addition, on hKv1.2 (estimated from block at 100 nM, vs sAnTx), the “estimated increase in Kd for Kv1.2” value is given as ~ 1000 fold. The “affinity for Kv1.2, in words” value on hKv1.2 (patch-clamp) is recorded as “lost the affinity for Kv1.2”. Besides, at Kv1.3 [1], the “TOFF, wash-out time constant” value turned out to be 26.6 ± 4.1 s; the “dissociation from Kv1.3, in words” value is “lower affinity and faster dissociation rate”.
By Kd is commonly meant the constant that tells how readily two partners part at equilibrium. Read a low Kd as tighter binding. As usually defined, the kon is the rate constant with which the complex forms. For `CSCC[C@@H]1NC(=O)[C@@H]2CSSC[C@H](NC(=O)[C@H](CCC(=O)O)NC(=O)[C@H](CCCCN)NC(=O)[C@@H]3CCC(=O)N3)C(=O)N[C@@H]([C@@H](C)O)C(=O)NCC(=O)N3CCC[C@H]3C(=O)N[C@@H](CCC(N)=O)C(=O)N[C@@H](Cc3c[nH]cn3)C(=O)N[C@H]3CSSC[C@H](NC(=O)[C@H](CCCCN)NC(=O)[C@H](CCCNC(=N)N)NC(=O)[C@H](CC(N)=O)NC1=O)C(=O)N[C@@H](CCCCN)C(=O)N[C@H]1CSSC[C@H](NC(=O)[C@H](Cc4ccccc4)NC(=O)[C@H](CC(N)=O)NC(=O)[C@H]([C@@H](C)O)NC3=O)C(=O)N[C@@H](CCCNC(=N)N)C(=O)N[C@@H](CCCCN)C(=O)N[C@@H](C)C(=O)N[C@@H](CCCCN)C(=O)N[C@@H](CSSC[C@@H](C(=O)N[C@@H](CCCCN)C(=O)O)NC(=O)[C@H](CC(N)=O)NC(=O)[C@H]([C@@H](C)O)NC1=O)C(=O)N[C@@H]([C@@H](C)O)C(=O)N[C@@H](Cc1c[nH]cn1)C(=O)NCC(=O)N[C@@H](CCCCN)C(=O)N2` [[N17A/F32T]-AnTx], on hKv1.3, the “Hill coefficient H, Kv1.3” value stood at 0.9; the “affinity and selectivity” value is “high affinity and highly Kv1.3-selective; also recorded: very high affinity and selectivity for Kv1.3 over mKv1.1, hKv1.2, and hKCa3.1 channels”. At hKv1.3 (whole-cell/outside-out patch-clamp, activated human lymphocytes, 15-ms pulses to +50 mV every 15 s, pH 7.35 bath, 2-parameter Hill fit), this molecule registered a Kd of 0.6 nM. For the same molecule, on hKv1.2, the “block of Kv1.2 current, in words” value is “negligible block” and the “Hill coefficient H, Kv1.2” value is given as 0.8. The “effect on Kv1.1 current, in words” value with mKv1.1 is given as “ineffective; also recorded: lack of significant blocking potency”. Further, the “effect on KCa3.1 current, in words” value in the test with hKCa3.1 is on record as “ineffective; also recorded: lack of significant blocking potency”. Moreover, on Kv1.3 [1], the “TOFF, wash-out time constant” value was 19.6 ± 2.83 s and the “dissociation from Kv1.3, in words” value is “dissociates from the channel at a much higher rate than the WT”. On Kv1.3 [2] ([N17A/F32T]-AnTx vs sAnTx), the “association rate to Kv1.3, in words” value is “faster association rate”. In addition, the kon on Kv1.3 [2] (calculated from TON and TOFF cell by cell, low concentrations for wash-in, unit meant 10^7 M-1s-1) was 4.38e+07 M⁻¹ s⁻¹.
As to `CSCC[C@@H]1NC(=O)[C@@H]2CSSC[C@H](NC(=O)[C@H](CCC(=O)O)NC(=O)[C@H](CCCCN)NC(=O)[C@@H]3CCC(=O)N3)C(=O)N[C@@H]([C@@H](C)O)C(=O)NCC(=O)N3CCC[C@H]3C(=O)N[C@@H](CCC(N)=O)C(=O)N[C@@H](Cc3c[nH]cn3)C(=O)N[C@H]3CSSC[C@H](NC(=O)[C@H](CCCCN)NC(=O)[C@H](CCCNC(=N)N)NC(=O)[C@H](CC(N)=O)NC1=O)C(=O)N[C@@H](CCCCN)C(=O)N[C@H]1CSSC[C@H](NC(=O)[C@H](Cc4ccccc4)NC(=O)[C@H](CC(N)=O)NC(=O)[C@H]([C@@H](C)O)NC3=O)C(=O)N[C@@H](CCCNC(=N)N)C(=O)N[C@@H](CCCCN)C(=O)N[C@@H](C)C(=O)N[C@@H](CCCCN)C(=O)N[C@@H](CSSC[C@@H](C(=O)N[C@@H](CCCCN)C(=O)O)NC(=O)[C@H](CC(N)=O)NC(=O)[C@H](Cc3ccccc3)NC1=O)C(=O)N[C@@H]([C@@H](C)O)C(=O)N[C@@H](Cc1c[nH]cn1)C(=O)NCC(=O)N[C@@H](CCCCN)C(=O)N2` [[N17A]-AnTx], on hKv1.3, the “Hill coefficient H, Kv1.3” value worked out at 0.9; the “affinity and selectivity” value was “no significant effect alone”. Also, the “affinity and selectivity” value at hKv1.3 (listed as N17A) was “did not alter selectivity significantly”. Moreover, on hKv1.2, the “Hill coefficient H, Kv1.2” value is reported as 0.8. For the same molecule, on Kv1.3 [1], the “TOFF, wash-out time constant” value was determined as 45.6 ± 2.0 s and the “dissociation from Kv1.3, in words” value was “dissociate from Kv1.3 more slowly”.
